Reference: patent publication US20160031985A1, “CHARGE-ENGINEERED ANTIBODIES OR COMPOSITIONS OF PENETRATION-ENHANCED TARGETING PROTEINS AND METHODS OF USE” (PERMEON BIOLOGICS, INC., priority 2013, published 2016)

Experiments:
Assay in all cases: In vitro cytotoxicity, CellTiter-Glo Luminescent Cell Viability Assay
Assay type in all cases: cell-based
JIMT-1 cells = conditions: JIMT-1, Her2 level 188,354, 5 days
Protocol: (§1) On the day of assay the culture media was replaced with media containing serially diluted charged or uncharged anti-Her2 antibody drug conjugate (ADC) ranging from 0.01 nM to 100 nM. There were 3 replicates at each concentration.
(§2) One of the anti-Her2+10 antibody variants described in Examples 12 and 20 was used in this Example for comparison with anti-Her2-wt antibody. Both were conjugated to DM1 as described in Example 17. The in vitro cytotoxicity of anti-Her2 ADCs was determined as described in Example 20.

MCF-7 (Her2^− cells) = conditions: MCF-7, Her2 level 39,016, 5 days
Protocol: as §1, §2

MDA-MB-453 cells = conditions: MDA-MB-453, Her2 level 255,217, 5 days
Protocol: as §1, §2

SK-BR-3 (Her2^+ cells) = conditions: SK-BR-3, Her2 level 602,083, 5 days
Protocol: as §1, §2

Anti-Her2-wt-MCC-DM1: un-modified wild-type/parent anti-Her2 antibody conjugated to MCC-DM1 (T-DM1)
IC50 (JIMT-1 cells): 8.2 nM
IC50 (MCF-7 (Her2^− cells)): 91.5 nM
IC50 (MDA-MB-453 cells): 0.78 nM
IC50 (SK-BR-3 (Her2^+ cells)): 0.22 nM
